Results taken from EP1586565A1 (dated 2000).

Protein sequences, listed by entry. Tags and fused reporters are not part of them. Residues count along the entry.
UniProt P00761, 9-231: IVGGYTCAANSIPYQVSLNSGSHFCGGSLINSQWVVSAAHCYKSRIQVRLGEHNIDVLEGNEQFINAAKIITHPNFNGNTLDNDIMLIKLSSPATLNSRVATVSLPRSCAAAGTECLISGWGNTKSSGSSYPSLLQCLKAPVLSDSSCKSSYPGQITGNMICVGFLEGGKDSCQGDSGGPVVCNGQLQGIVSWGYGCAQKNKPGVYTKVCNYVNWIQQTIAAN
UniProt P08709, 61-212 limits assumed: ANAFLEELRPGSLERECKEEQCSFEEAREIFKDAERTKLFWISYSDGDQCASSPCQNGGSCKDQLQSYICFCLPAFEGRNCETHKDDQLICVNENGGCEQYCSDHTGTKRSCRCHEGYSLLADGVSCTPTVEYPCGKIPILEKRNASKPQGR
UniProt P08709, 213-466 limits assumed: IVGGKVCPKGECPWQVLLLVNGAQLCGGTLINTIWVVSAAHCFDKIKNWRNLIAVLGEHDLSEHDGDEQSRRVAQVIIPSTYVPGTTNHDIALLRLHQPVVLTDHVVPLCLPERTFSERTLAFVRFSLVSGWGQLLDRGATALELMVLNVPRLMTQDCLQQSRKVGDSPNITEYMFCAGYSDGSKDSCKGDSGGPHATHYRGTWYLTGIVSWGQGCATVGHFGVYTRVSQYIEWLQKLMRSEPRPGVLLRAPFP

Columns and labels:
Trypsin = Trypsin (Sus scrofa, UniProt P00761); test: Trypsin Assay
TF-VIIa = TF-VIIa (Homo sapiens, UniProt P08709); test: TF-VIIa Assay

## O=C(Cn1c(-c2ccc(-c3ccccc3)cc2)c(Cl)nc(NCCc2ccccc2)c1=O)NCCc1cccnc1 [Example E-0113]
Trypsin
  % Inhibition Trpysin II (100 µM): 11%
TF-VIIa
  % Inhibition TF-VIIa (100 µM): 14%
